Assay results: article PMC4844575, “The influence of different metal-chelate conjugates of pentixafor on the CXCR4 affinity” (EJNMMI Research, 2016)

By UniProt entry, the sequences of proteins in these tests, tags left out.
UniProt P61073, whole entry, looked up: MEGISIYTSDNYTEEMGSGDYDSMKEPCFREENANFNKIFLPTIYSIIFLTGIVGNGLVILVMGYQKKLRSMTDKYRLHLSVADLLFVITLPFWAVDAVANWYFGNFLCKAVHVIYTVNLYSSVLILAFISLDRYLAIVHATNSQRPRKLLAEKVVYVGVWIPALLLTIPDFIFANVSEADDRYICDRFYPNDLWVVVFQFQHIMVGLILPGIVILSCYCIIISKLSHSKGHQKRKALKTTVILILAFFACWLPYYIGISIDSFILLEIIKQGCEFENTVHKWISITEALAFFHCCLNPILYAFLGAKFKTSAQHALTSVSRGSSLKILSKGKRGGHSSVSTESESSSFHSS

Target: CXCR4 (Homo sapiens, UniProt P61073)
Assay: competitive binding assay on Jurkat cells with [125I]FC131 as radioligand
Conditions: Jurkat T-cells, 4 × 10^5 cells per vial, app. 0.1 nM [125I]FC131, 120 min incubation, mean ± SD (n = 3)

Compound: CN1C(=O)[C@@H](Cc2ccc(O)cc2)NC(=O)CNC(=O)[C@H](Cc2ccc3ccccc3c2)NC(=O)[C@H](CCCNC(=N)N)NC(=O)[C@H]1CCCNC(=O)c1ccc(CNC(=O)CN2CCN(CC(=O)O)CCN(CC(=O)O)CCN(CC(=O)O)CC2)cc1
- IC50: 24.8 nM
